Results from patent publication US20200297862A1, “METHODS OF USING BISPECIFIC ANTIGEN-BINDING CONSTRUCTS TARGETING HER2” (Zymeworks Inc., priority 2016, published 2020).

Experiments:
Type in all cases: cell-based, human
MDA-MB-231 cells = assay: ADCC, NK effector cells E:T 5:1
BT-474 cells [1] = assay: Growth inhibition of HER2+ cells (cell viability); settings: 200 nM antibody, 3 days; Table 11A
Method: The ability of an exemplary biparatopic anti-HER2 antibody to inhibit growth of cells expressing HER2 at the 3+ and 2+ level was measured. […] The ability of the biparatopic anti-HER2 antibodies to inhibit the growth of BT-474 cells (200 nM antibody); SKOV3, SKBr3 and JIMT-1 cells (300 nM antibody) was measured as described below.
Test antibodies were diluted in media and added to the cells at 10 μl/well in triplicate. The plates were incubated for 3 days 37° C. Cell viability was measured using either AlamarBlue™ (Biosource # dal1100), or Celltiter-Glo® and absorance read as per the manufacturer's instructions. Data was normalized to untreated control and analysis was performed in GraphPad prism.

JIMT-1 cells = assay: Whole cell loading and internalization (AlexaFluor 488 labelled antibody, flow cytometry)
BT-474 cells [2] = assay: as above
SKBr3 cells = assay: ADCC, NK effector cells E:T 5:1
Method: Target cells were pre-incubated with test antibodies (10-fold descending concentrations from 45 μg/ml) for 30 min followed by adding effector cells with effector/target cell ratio of 5:1 and the incubation continued for 6 hours at 37° C.+5% CO2. Samples were tested with 8 concentrations, 10 fold descending from 45 μg/ml. LDH release was measured using LDH assay kit.
Dose-response studies were performed with various concentrations of the samples with a effector/target (E/T) ratios of 5:1. 3:1 and 1:1. Half maximal effective concentration (EC50) values were analyzed with the sigmoidal dose-response non-linear regression fit using GraphPad prism.
The ADCC experiments were performed as described in Example 11 with the exception that NK effector cell to target cell ratio remained constant at 5:1.

MCF7 cells = assay: Whole cell loading and internalization (AlexaFluor 488 labelled antibody, flow cytometry); settings: 200 nM labelled antibody, Table 41
[3] = 200 nM labelled antibody, 24 h at 37° C., Table 40
[4] = 200 nM labelled antibody, 24 h at 37° C., Table 39

“v5019: biparatopic anti-HER2 antibody, Fab-scFv: pertuzumab Fab (ECD2) chain A, trastuzumab scFv (ECD4) chain B, heterodimeric Fc” was tested, and the “MDA-MB-231 HER2 0/1+ Max % Target Cell Lysis” value (MDA-MB-231 cells; NK E:T 5:1, Table 23) was 53%, the “% Max Cell Lysis(top only)” value (MDA-MB-231 cells; NK-92 E/T 5:1, Table 45) was 77% and 71% and the EC50 (MDA-MB-231 cells; NK-92 E/T 5:1, Table 45, read-out: EC50) was 0.2 nM. The EC50 (MDA-MB-231 cells; read-out: MDA-MB-231 HER2 0/1+ EC50, NK E:T 5:1, Table 23) was 0.9 nM, the “% Survival BT-474 HER2 3+” value (BT-474 cells [1]) was 43% and the “Surface 4° C.” value (JIMT-1 cells; 200 nM labelled antibody, 2 h at 4° C., Table 40) was 437. The “Internal 37° C.” value (JIMT-1 cells; [3]) was 1035, the “Surface 37° C.” value (JIMT-1 cells; [3]) was 5.2 and the “reduction of antibody detected on the surface of whole cells” value (JIMT-1 cells; 24 h at 37° C. vs 2 h at 4° C.) was ~57% and ~64%. The “Surface 4° C.” value (BT-474 cells [2]; 200 nM labelled antibody, 2 h at 4° C., Table 39) was 2867, the “Internal 37° C.” value (BT-474 cells [2]; [4]) was 5710 and the “Surface 37° C.” value (BT-474 cells [2]; [4]) was 2675. For the same substance, the “reduction of antibody detected on the surface of whole cells” value (BT-474 cells [2]; 24 h at 37° C. vs 2 h at 4° C.) was about 15%, the “SICBr3 HER2 3+ Max % Target Cell Lysis” value (SKBr3 cells; NK E:T 5:1, Table 23) was 30% and the EC50 (SKBr3 cells; NK E:T 5:1, Table 23, read-out: SICBr3 HER2 3+ EC50) was about 0.9 nM. For the same substance, the “Surface 4° C.” value (MCF7 cells; 2 h at 4° C.) was 81, the “Internal 37° C.” value (MCF7 cells; 24 h at 37° C.) was 134 and the “Surface 37° C.” value (MCF7 cells; 24 h at 37° C.) was 17.

“And” between values parts separate entries of the source, which are not always exact repeats. Equal values may be shown once. Read-outs that look alike come from different tables or passages of the source.
